This passage reports Ki results from BindingDB's records for doi:10.1007/s00210-001-0505-y (Institut De Recherches Servier, 2002).

The chains behind the UniProt entries cited, without tags or fusion partners. Where a name states a change or a piece, a line headed by the entry shows the natural chain unless it says otherwise.
UniProt P28335: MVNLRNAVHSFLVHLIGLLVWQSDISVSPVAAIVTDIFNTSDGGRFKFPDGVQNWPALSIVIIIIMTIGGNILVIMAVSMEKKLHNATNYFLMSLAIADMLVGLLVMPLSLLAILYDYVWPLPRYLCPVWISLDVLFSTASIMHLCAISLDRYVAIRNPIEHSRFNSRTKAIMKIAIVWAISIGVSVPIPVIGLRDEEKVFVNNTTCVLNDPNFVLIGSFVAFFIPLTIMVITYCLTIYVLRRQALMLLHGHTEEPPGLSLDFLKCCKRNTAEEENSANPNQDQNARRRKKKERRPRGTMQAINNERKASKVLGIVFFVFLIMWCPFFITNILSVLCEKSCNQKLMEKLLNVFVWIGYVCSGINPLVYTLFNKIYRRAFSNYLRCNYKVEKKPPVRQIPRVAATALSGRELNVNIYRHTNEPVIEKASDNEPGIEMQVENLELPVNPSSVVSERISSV
UniProt P41595, whole entry: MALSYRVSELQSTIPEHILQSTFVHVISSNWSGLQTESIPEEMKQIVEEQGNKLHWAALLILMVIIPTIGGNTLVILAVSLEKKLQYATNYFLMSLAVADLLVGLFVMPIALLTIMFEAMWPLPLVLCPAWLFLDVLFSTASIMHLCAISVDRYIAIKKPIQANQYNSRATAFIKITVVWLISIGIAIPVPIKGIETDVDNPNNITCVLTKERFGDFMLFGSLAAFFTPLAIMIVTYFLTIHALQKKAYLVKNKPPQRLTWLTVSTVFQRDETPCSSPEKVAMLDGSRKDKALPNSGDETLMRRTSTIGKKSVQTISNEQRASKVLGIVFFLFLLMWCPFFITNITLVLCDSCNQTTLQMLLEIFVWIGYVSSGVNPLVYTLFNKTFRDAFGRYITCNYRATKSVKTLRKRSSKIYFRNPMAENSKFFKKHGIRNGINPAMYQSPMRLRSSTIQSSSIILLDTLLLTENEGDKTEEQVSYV

For orientation: Ki means the dissociation constant of the complex between target and ligand, obtained from inhibition or displacement. A low value points to higher affinity.

The target in assay [1] is 5-hydroxytryptamine receptor 2C (Homo sapiens, UniProt P28335).
Assay [2] has as its target 5-hydroxytryptamine receptor 2B (Homo sapiens, UniProt P41595).

On to `Clc1cccc(N2CCNCC2)c1` [mCPP], for which the Ki worked out at 85.1 nM in assay [1] and 12 nM in assay [2].
Take `CC(N)Cc1c[nH]c2ccc(OCc3cccs3)cc12` (stereo not drawn) [NSC_5311036]: in assay [2], the Ki was determined as 3.16 nM. This lies in the single-digit nanomolar range.
